Species: Rattus norvegicus
Experiment: Selectivity ratio of IC50 for delta opioid receptor to IC50 for mu opioid receptor in Wistar rat brain membrane
Assay type: cell membranes
Procedure, shortened: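 Wistar rat brain crude membranes incubated 120 min at 25 °C with peptide and 0.5 nM [3H]DAMGO (MOR) or 0.5 nM [3H][Ile5,6]deltorphin-2 (DOR) in 50 mM Tris/HCl pH 7.4 with 5 mM MgCl2, 1 mM EDTA, 100 mM NaCl, bacitracin.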

**Q.** NC(=O)[C@H](Cc1ccccc1)NC(=O)[C@H](Cc1ccccc1)N(C=O)C1CCN(C(=O)[C@@H](N)Cc2ccc(O)cc2)CC1 was tested. Which Ratio IC50 did it give?
**A.** > 5.36
